Measurements from ChEMBL document CHEMBL4834423, “Discovery of AG-270, a First-in-Class Oral MAT2A Inhibitor for the Treatment of Tumors with Homozygous MTAP Deletion” (J Med Chem, 2021).

The chains behind the UniProt entries cited, without tags or fusion partners.
UniProt P31153, whole entry, looked up: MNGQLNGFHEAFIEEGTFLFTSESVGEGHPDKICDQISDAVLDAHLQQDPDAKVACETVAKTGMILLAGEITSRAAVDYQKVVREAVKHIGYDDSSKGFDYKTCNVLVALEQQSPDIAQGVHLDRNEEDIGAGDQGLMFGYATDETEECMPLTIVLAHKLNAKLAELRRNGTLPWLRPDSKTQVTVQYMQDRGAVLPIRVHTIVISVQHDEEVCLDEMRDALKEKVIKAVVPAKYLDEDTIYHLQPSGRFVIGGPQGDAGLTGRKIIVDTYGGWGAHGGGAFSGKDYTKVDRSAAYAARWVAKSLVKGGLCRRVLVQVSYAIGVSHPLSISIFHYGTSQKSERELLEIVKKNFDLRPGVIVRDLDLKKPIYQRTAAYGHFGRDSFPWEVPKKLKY

Biological target: S-adenosylmethionine synthase isoform type-2 (Homo sapiens, UniProt P31153)
Test: Inhibition of recombinant human MAT2A expressed in baculovirus infected Sf9 cells assessed as S-adenosyl methionine production using L-methionine as substrate incubated for 60 mins followed by substrate addition and measured after 60 mins relative to control
Parameters: concentration or dose not given beside the values

inhibition: 55%
Structure (SMILES): Cc1cc(=O)n2nc(C3=CCCCC3)c(-c3ccccc3)c2[nH]1
